# Membrane permeability of cyclic peptides

Collected by the curators of CycPeptMPDB (Li et al. 2023) from Furukawa et al. 2016, doi:10.1021/acs.jmedchem.6b01246.

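Conditions beyond the assay type are not listed; see the original paper. Other peptides of the study may be missing here. Entries at the database's floor value (log10 P of -10) are not listed.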

PAMPA is the parallel artificial membrane permeability assay, which has no cells and reads passive diffusion.
Values are log10 P with P in cm/s, so -5 is more permeable than -7.

PAMPA (log10 cm/s) | SMILES
-5.86 | CCCC[C@@H]1NC(=O)[C@H](CC(C)C)NC(=O)CN(CC2CCCCC2)C(=O)[C@@H](C)NC(=O)CN(CCCOC(C)C)C(=O)[C@H]2CCCN2C1=O
-5.37 | CCCC[C@@H]1NC(=O)[C@H](CC(C)C)N(C)C(=O)CN(CC2CCCCC2)C(=O)[C@H](Cc2ccccc2)NC(=O)CN(CC)C(=O)[C@H]2CCCN2C1=O
-4.92 | CCCCCN1CC(=O)N[C@@H](CC(C)C)C(=O)N[C@@H](CCCC)C(=O)N2CCC[C@H]2C(=O)N(CCCOC(C)C)CC(=O)N[C@@H](Cc2ccccc2)C1=O
-5.89 | CCCC[C@@H]1NC(=O)[C@@H](CC(C)C)NC(=O)CN(CC2CCOCC2)C(=O)[C@H](Cc2ccccc2)NC(=O)CN(CC)C(=O)[C@H]2CCCN2C1=O
-5.43 | CCCC[C@@H]1NC(=O)[C@@H](CC(C)C)N(C)C(=O)CN(CC2CCCCC2)C(=O)[C@H](Cc2ccccc2)NC(=O)CN(CC)C(=O)[C@H]2CCCN2C1=O
-5.14 | CCCC[C@@H]1NC(=O)[C@H](CC(C)C)NC(=O)CN(CC2CCCCC2)C(=O)[C@@H](Cc2ccccc2)NC(=O)CN(CCCOC(C)C)C(=O)[C@@H]2CCCN2C1=O
-5.13 | CCCCCN1CC(=O)N(C)[C@H](CC(C)C)C(=O)N[C@@H](CCCC)C(=O)N2CCC[C@@H]2C(=O)N(CC)CC(=O)N[C@@H](C)C1=O
-5.38 | CCCCCN1CC(=O)N(C)[C@H](CC(C)C)C(=O)N[C@@H](CCCC)C(=O)N2CCC[C@@H]2C(=O)N(CCCOC(C)C)CC(=O)N[C@H](C)C1=O
-5.08 | CCCCCN1CC(=O)N(C)[C@@H](CC(C)C)C(=O)N[C@@H](CCCC)C(=O)N2CCC[C@H]2C(=O)N(CCCOC(C)C)CC(=O)N[C@@H](Cc2ccccc2)C1=O
-5.07 | CCCC[C@@H]1NC(=O)[C@H](CC(C)C)N(C)C(=O)CN(CC2CCCCC2)C(=O)[C@H](Cc2ccccc2)NC(=O)CN(CC)C(=O)[C@@H]2CCCN2C1=O
-5.19 | CCCC[C@@H]1NC(=O)[C@H](CC(C)C)NC(=O)CN(CC2CCCCC2)C(=O)[C@H](C)NC(=O)CN(Cc2ccc3c(c2)OCO3)C(=O)[C@@H]2CCCN2C1=O
-5.48 | CCCCCN1CC(=O)N(C)[C@@H](CC(C)C)C(=O)N[C@@H](CCCC)C(=O)N2CCC[C@@H]2C(=O)N(CCCOC(C)C)CC(=O)N[C@@H](Cc2ccccc2)C1=O
-7.19 | CCCC[C@@H]1NC(=O)[C@@H](CC(C)C)N(C)C(=O)CN(CC2CCOCC2)C(=O)[C@@H](C)NC(=O)CN(CC)C(=O)[C@H]2CCCN2C1=O
-5.10 | CCCC[C@@H]1NC(=O)[C@H](CC(C)C)N(C)C(=O)CN(CC2CCCCC2)C(=O)[C@@H](Cc2ccccc2)NC(=O)CN(CC)C(=O)[C@@H]2CCCN2C1=O
-6.65 | CCCC[C@@H]1NC(=O)[C@H](CC(C)C)N(C)C(=O)CN(CC2CCCCC2)C(=O)[C@H](Cc2ccccc2)NC(=O)CN(Cc2ccc3c(c2)OCO3)C(=O)[C@@H]2CCCN2C1=O
-5.54 | CCCC[C@@H]1NC(=O)[C@@H](CC(C)C)N(C)C(=O)CN(CC2CCOCC2)C(=O)[C@H](C)NC(=O)CN(Cc2ccc3c(c2)OCO3)C(=O)[C@@H]2CCCN2C1=O
-5.81 | CCCCCN1CC(=O)N(C)[C@H](CC(C)C)C(=O)N[C@@H](CCCC)C(=O)N2CCC[C@H]2C(=O)N(Cc2ccc3c(c2)OCO3)CC(=O)N[C@@H](Cc2ccccc2)C1=O
-6.61 | CCCC[C@@H]1NC(=O)[C@H](CC(C)C)N(C)C(=O)CN(CC2CCOCC2)C(=O)[C@H](C)NC(=O)CN(CCCOC(C)C)C(=O)[C@@H]2CCCN2C1=O
-6.64 | CCCC[C@@H]1NC(=O)[C@@H](CC(C)C)NC(=O)CN(CC2CCOCC2)C(=O)[C@@H](C)NC(=O)CN(Cc2ccc3c(c2)OCO3)C(=O)[C@@H]2CCCN2C1=O
-6.25 | CCCCCN1CC(=O)N[C@H](CC(C)C)C(=O)N[C@@H](CCCC)C(=O)N2CCC[C@H]2C(=O)N(CC)CC(=O)N[C@@H](C)C1=O

Repeated from above, the 2 entries with the highest PAMPA:

SMILES | PAMPA (log10 cm/s)
CCCCCN1CC(=O)N[C@@H](CC(C)C)C(=O)N[C@@H](CCCC)C(=O)N2CCC[C@H]2C(=O)N(CCCOC(C)C)CC(=O)N[C@@H](Cc2ccccc2)C1=O | -4.92
CCCC[C@@H]1NC(=O)[C@H](CC(C)C)N(C)C(=O)CN(CC2CCCCC2)C(=O)[C@H](Cc2ccccc2)NC(=O)CN(CC)C(=O)[C@@H]2CCCN2C1=O | -5.07